# Antibody variant affinities, Ab-91 heavy chain, assay 2

From the AlphaSeq antibody data of Engelhart et al. 2022 (doi:10.1038/s41597-022-01779-4), copy in the FLAb collection.

Antigen: PDVDLGDISGINAS, a 14-residue peptide of the SARS-CoV-2 spike HR2 region.

Parent scFv Ab-91: VL joined to VH by a (GGGGS)3 linker. Changes lie in the heavy chain CDRs alone.
VL: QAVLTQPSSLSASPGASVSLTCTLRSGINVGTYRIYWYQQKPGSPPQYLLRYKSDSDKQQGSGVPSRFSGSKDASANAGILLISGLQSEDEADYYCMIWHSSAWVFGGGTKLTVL
VH: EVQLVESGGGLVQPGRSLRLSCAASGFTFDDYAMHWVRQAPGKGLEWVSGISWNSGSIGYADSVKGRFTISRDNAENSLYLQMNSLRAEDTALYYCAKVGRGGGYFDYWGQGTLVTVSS

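The parent was found by panning a naive human phage display library on the peptide. In library AAYL51, one, two or three CDR residues were substituted; doubles and triples were drawn at random. In AlphaSeq, yeast of one mating type display the scFv and yeast of the other type display the target. Mating (16 h, 30 °C) was followed by selection of diploids and sequencing of their barcodes. Each replicate has its own calibration line, from reference interactions of the BCL2 family. Each pool was mated in three replicate cultures.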

Positions count from residue 1 of the parent VH; D30R puts R in place of D. Numbers give log10(Kd / nM), so 0 is 1 nM and 3 is 1 µM. Smaller is tighter. The mean shown is taken over the replicates in which the pair was detected. A pair that was not seen in any replicate is written "nd"; this usually means weak binding, but a binder can also be missed.

mean log10 Kd (nM)	replicates with signal	signal with controls	changes
3.13	3 of 3	7 of 9	D30R+I58D
nd	0 of 3	1 of 9	Y60C+G100N+D107Q
nd	0 of 3	0 of 9	I58Y+V99R+D107Q
3.95	2 of 3	0 of 9	G26L+A61L+D107M
nd	0 of 3	4 of 9	G103S+F106K+D107H
5.23	2 of 3	7 of 9	A33V+N54I+S57C
4.88	3 of 3	4 of 9	F27L+W53F+G100T
3.93	2 of 3	3 of 9	N54M+G56P+S57P
nd	0 of 3	0 of 9	Y32F+G50I+G100Q
2.88	1 of 3	0 of 9	W53K+A61G+R101A
3.86	1 of 3	2 of 9	T28V+H35S+N54K
nd	0 of 3	0 of 9	M34Q+H35S+G50T
nd	0 of 3	1 of 9	F27W+Y32A+R101S
5.30	3 of 3	5 of 9	F29H+S55T+G102N
nd	0 of 3	0 of 9	T28M+H35C+D107R
4.91	2 of 3	4 of 9	T28F+D107M
nd	0 of 3	1 of 9	D31F+M34R+N54P
4.82	3 of 3	3 of 9	G26P+F27R+F106T
4.89	1 of 3	2 of 9	H35S+G100N+F106K
nd	0 of 3	0 of 9	G50T+V99N+G104P
4.75	1 of 3	0 of 9	A33P+V99L+D107A
1.19	3 of 3	8 of 9	G56C+Y108S
nd	0 of 3	3 of 9	D31G+R101N+Y108C
nd	0 of 3	0 of 9	S52E+K65Q
nd	0 of 3	2 of 9	D31F+G59E+A61W
4.78	3 of 3	2 of 9	G26E+G102K+G103C
nd	0 of 3	0 of 9	K65T+G102M+Y105T
3.91	1 of 3	1 of 9	Y32K+S57I+V64T
nd	0 of 3	0 of 9	T28K+R101T+D107G
5.51	3 of 3	6 of 9	M34K+K65G+D107C
5.87	2 of 3	4 of 9	D31F+I51S+Y105T
nd	0 of 3	0 of 9	D31E+G50V+G103N
4.67	1 of 3	3 of 9	D31T+Y60G+G102V
nd	0 of 3	0 of 9	N54S+Y60T+Y105L
nd	0 of 3	0 of 9	I51H+V64Q+G102F
5.43	1 of 3	5 of 9	D30S+S57R+G59Y
nd	0 of 3	0 of 9	S55R+I58Y+Y105T
nd	0 of 3	0 of 9	A33V+Y60L+K65P
nd	0 of 3	1 of 9	T28Y+D30P+V99Y
nd	0 of 3	1 of 9	G26H+G100T+R101L
nd	0 of 3	3 of 9	M34V+N54A+Y108S
nd	0 of 3	3 of 9	N54T+D62R
4.95	3 of 3	5 of 9	F29I+Y60H+V64C
4.46	2 of 3	1 of 9	Y60H+V99P
nd	0 of 3	1 of 9	G26T+M34H
2.80	3 of 3	4 of 9	S55G+I58L+F106T

The 7 strongest on average among those seen in every replicate, once more:

changes	mean log10 Kd (nM)	replicates with signal	signal with controls
G56C+Y108S	1.19	3 of 3	8 of 9
S55G+I58L+F106T	2.80	3 of 3	4 of 9
D30R+I58D	3.13	3 of 3	7 of 9
G26E+G102K+G103C	4.78	3 of 3	2 of 9
G26P+F27R+F106T	4.82	3 of 3	3 of 9
F27L+W53F+G100T	4.88	3 of 3	4 of 9
F29I+Y60H+V64C	4.95	3 of 3	5 of 9

In this assay the parent's reference entry averaged 1.86; its copy inside this library read 0.88. Nonspecific signal, from three strains lacking the peptide, appeared in 21% of pairings of library AAYL51, centred on 4.54 (5% of these signals below 3.26); values are not corrected for it. For each scFv, signals with the empty controls are counted beside the result.